Tested on: PC-3 prostate cancer cells
Assay: Effect of dasatinib on GRP receptor binding, proliferation and glucose uptake in PC-3 cells (single plate assay)
Format: cell-based, human
Settings: PC-3, vs control without treatment
Procedure: The cells were plated on Day 0 (7.5 k/well 96-well PE Scintiplate). […] To determine the cell numbers and the proliferation, 100 uL of 10% CCK—F solution in DPBS (Molecular technologies) was added to the same plate, incubated for 30 min at 37° C. and the relative fluorescence (RFU) measured at 535 nm. Base on the cell numbers and the ^177Lu-binding, the Bmax (fmoles bound/million cells) was calculated, and the results compared with the control.
For the glucose uptake study, a fluorescently labeled 2-deoxyglucose derivative (2-NBDG) was used. After the dasatinib treatment as described above, the cells were incubated with 2-NBDG (200 uM) in binding buffer for 2 h at 37° C. and measured RFU at 530 nm. The cell numbers were determined using CCK—F as described above. Based on the cell numbers Bmax for glucose uptake was determined and compared with the control.

dasatinib was tested, and the “increase of 177Lu-AMBA uptake” value was “up to 76%” and the “increase of 177Lu-AMBA uptake” value (listed as Dasatinib) was 76.7%.

From patent publication US20110250133A1, “GASTRIN […] PEPTIDE COMPOUNDS” (priority 2003, published 2011)
